{"sequences": {"note": "Protein sequences, listed by entry. Tags and fused reporters are not part of them. Residues count along the entry.", "UniProt P22303, 32-614": "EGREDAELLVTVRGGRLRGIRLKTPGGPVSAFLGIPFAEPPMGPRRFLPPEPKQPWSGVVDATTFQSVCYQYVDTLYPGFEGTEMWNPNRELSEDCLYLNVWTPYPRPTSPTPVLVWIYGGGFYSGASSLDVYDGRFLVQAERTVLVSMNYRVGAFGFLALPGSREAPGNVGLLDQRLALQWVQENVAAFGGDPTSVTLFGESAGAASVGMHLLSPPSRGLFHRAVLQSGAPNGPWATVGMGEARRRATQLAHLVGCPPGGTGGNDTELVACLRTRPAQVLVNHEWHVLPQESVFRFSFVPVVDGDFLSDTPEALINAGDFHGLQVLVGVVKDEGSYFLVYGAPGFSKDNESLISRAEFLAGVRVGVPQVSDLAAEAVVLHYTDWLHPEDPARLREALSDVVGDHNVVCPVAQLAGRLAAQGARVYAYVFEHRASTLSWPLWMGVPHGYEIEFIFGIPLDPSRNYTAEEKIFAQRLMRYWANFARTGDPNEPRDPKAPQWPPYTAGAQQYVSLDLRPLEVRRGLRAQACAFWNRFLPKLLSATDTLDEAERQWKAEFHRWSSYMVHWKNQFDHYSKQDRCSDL"}, "source": "patent US5401749A", "about": "“9-amino-1,4ethano-1,2,3,4-tetrahydroacridine and related compounds” (Hoechst-Roussel Pharmaceuticals Inc., priority 1988, dated 1995)", "molecular_target": "Acetylcholinesterase (Homo sapiens, UniProt P22303)", "assay": "Acetylcholinesterase Inhibition Assay (photometric method of Ellman et al.)", "assay_type": "biochemical", "data": [{"compound": "Nc1c2c(nc3ccccc13)C1CCC2C1", "note": "(stereo not shown) [9-Amino-1,4-methano-1,2,3,4-tetrahydroacridine]", "values": [{"measurement": "IC50", "result": 0.093, "unit": "µM"}]}]}
